Assays:
Format in all cases: physicochemical
[1] = Light-fastness study, addition of ascorbic acid; conditions: 0.1% vanillin, 1500 Lux 5 hours per day
Protocol: The formulations used for these experiments are described in TABLE 10. Oxynex ST (5%) and Oxynex ST (5%) with ascorbic acid (1%) were added to the composition to determine the effect on photostability.
(§1) Method: Formulations were diluted with water to 0.1% vanillin and 5 mL transferred by pipette to a 100 mL crystallising dish. All dishes were placed in a light box containing two 60 cm high efficiency 24 W fluorescent bulbs housed in a canopy to provide bright, full spectrum lighting closely resembling daylight (6400 Kelvin). The dishes were covered with muslin sheets to reduce the intensity of the light to 1500 Lux on a programme of 5 hours per day. At specific time intervals the dishes were extracted and made up to volume with methanol. Samples were analysed by HPLC.

[2] = Light-fastness study (Oxynex ST photostabiliser); conditions: 0.1% vanillin, light box 5000 lux
Protocol: A composition without any photostabiliser was used as a base composition (no photostabiliser). Various amounts of Oxynex ST (2.5%, 5% and 10%) were added to the base composition to determine the photostability or light-fastness of vanillin in the microemulsion formulation. […] However, this problem could be avoided by the addition of a photostabiliser (Oxynex ST).
Method: Each formulation was diluted with water to 0.1% vanillin (as pure) and 5 mL was applied by pipette to a glass petri dish. The dishes were left to stand in a light box fitted with 2×40 W fluorescent daylight bulbs with an illumination intensity of 5000 lux. The dishes were extracted with methanol and made up to 25 mL in a volumetric flask after 3 and 5 days. Samples were then analysed by HPLC.

[3] = Light-fastness study, ratio of Oxynex ST:ascorbic acid; conditions: 0.1% vanillin, 1500 Lux 5 hours per day
Protocol: The formulations used for these experiments are described in TABLE 12. Various ratios of Oxynex ST and ascorbic acid were used in the composition to determine the effect on photostability.
as §1

COc1cc(C=O)ccc1O [0.1% Vanillin Technical in water, 4-Hydroxy-3-methoxybenzaldehyde]
Concentration (mg/dish) ([1]; 3 days): 5.64 mg/dish
Loss (%) ([1]; 14 days): 11.07%
Vanillin ([2]; 0 days): 189.36 mg/L
Vanillin ([2]; 5 days): 173.29 mg/L
Vanillin (mg/L) 1 ([3]; 0 days): 201.28 mg/L
Vanillin (mg/L) avg ([3]; 0 days): 200.88 mg/L
Vanillin (mg/L) 1 ([3]; 1 day): 198.02 mg/L
Vanillin (mg/L) 2 ([3]; 1 day): 198.95 mg/L
Vanillin (mg/L) avg ([3]; 1 day): 198.49 mg/L
Vanillin (mg/L) 1 ([3]; 2 days): 198.76 mg/L
Vanillin (mg/L) 2 ([3]; 2 days): 197.78 mg/L
Vanillin (mg/L) avg ([3]; 2 days): 198.27 mg/L
Vanillin (mg/L) 1 ([3]; 3 days): 196.44 mg/L
Vanillin (mg/L) 2 ([3]; 3 days): 195.47 mg/L
Vanillin (mg/L) avg ([3]; 3 days): 195.96 mg/L

Reference: US20160157479A1, “ANTIFUNGAL COMPOSITION AND METHOD” (OMEX INTERNATIONAL LIMITED, priority 2013, published 2016)
